In ChEMBL document CHEMBL1132386, “Mixture-based synthetic combinatorial libraries” (J Med Chem, 1999):

Tests used:
[1] = target: Kappa-type opioid receptor (Cavia porcellus) (UniProt P41144); test: Inhibitory activity for kappa opioid receptor
[2] = target: Kappa-type opioid receptor (Cavia porcellus, UniProt P41144); test: Inhibition of Opioid receptor kappa 1 binding
In short: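 Kappa opioid radioreceptor binding in guinea pig brain homogenate with 3 nM [3H]U69,593 as radioligand, incubated 2.5 h at 25°C. Library mixtures were screened at 4 μg/mL. Data were normalized to percent inhibition using background and total binding.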

Row | SMILES | IC50 [1] [nM] | IC50 [2] [nM]
1 | CC(C)C[C@@H]1CN2C(=NC[C@@H]2C)N1CC1CCC(C)CC1 (some centres not stated) | 6480 | 
2 | CC(C)C[C@@H]1CN2C(=NC[C@H]2C2CCCCC2)N1CCC1CC2CCC1C2 (some centres not stated) | 359 | 
3 | COc1ccc(C[C@@H]2CN3C(=NC[C@@H]3C)N2CC2CCC(C)CC2)cc1 (some centres not stated) | 425 | 
4 | CC1CCC(CN2C3=NC[C@@H](C4CCCCC4)N3C[C@@H]2C2CCCCC2)CC1 (some centres not stated) | 1140 | 
5 | COc1ccc(C[C@H]2CN3C(=NC[C@@H]3C)N2CCC2CC3CCC2C3)cc1 (some centres not stated) | 185 | 3010
6 | COc1ccc(C[C@@H]2CN3C(=NC[C@@H]3C3CCCCC3)N2CC2CCC(C)CC2)cc1 (some centres not stated) | 369 | 2330
7 | COc1ccc(C[C@@H]2CN3C(=NC[C@H]3C3CCCCC3)N2C(C)C23CC4CC(CC(C4)C2)C3)cc1 (some centres not stated) |  | 3180
8 | COc1ccc(C[C@H]2CN3C(=NC[C@H]3C3CCCCC3)N2C(C)C23CC4CC(CC(C4)C2)C3)cc1 (some centres not stated) | > 10000 | 
9 | CC1CCC(CN2C3=NC[C@H](C4CCCCC4)N3C[C@@H]2C2CCCCC2)CC1 (some centres not stated) | 365 | 
10 | COc1ccc(C[C@H]2CN3C(=NC[C@@H]3C)N2CC2CCC(C)CC2)cc1 (some centres not stated) | 1570 | 1790
11 | CC(C)C[C@@H]1CN2C(=NC[C@@H]2C2CCCCC2)N1CCC1CC2CCC1C2 (some centres not stated) | 827 | 
12 | C[C@H]1CN=C2N(CCC3CC4CCC3C4)[C@@H](C3CCCCC3)CN21 (some centres not stated) | 4420 | 
13 | COc1ccc(C[C@@H]2CN3C(=NC[C@@H]3C)N2C(C)C23CC4CC(CC(C4)C2)C3)cc1 (some centres not stated) | 238 | 2210
14 | COc1ccc(C[C@H]2CN3C(=NC[C@@H]3C)N2C(C)C23CC4CC(CC(C4)C2)C3)cc1 (some centres not stated) | 1520 | 3750
15 | COc1ccc(C[C@H]2CN3C(=NC[C@@H]3C3CCCCC3)N2CC2CCC(C)CC2)cc1 (some centres not stated) | 336 | 
16 | COc1ccc(C[C@@H]2CN3C(=NC[C@@H]3C3CCCCC3)N2C(C)C23CC4CC(CC(C4)C2)C3)cc1 (some centres not stated) | > 10000 | 
17 | COc1ccc(C[C@@H]2CN3C(=NC[C@@H]3C)N2CCC2CC3CCC2C3)cc1 (some centres not stated) | 85 | 
18 | COc1ccc(C[C@H]2CN3C(=NC[C@@H]3C3CCCCC3)N2C(C)C23CC4CC(CC(C4)C2)C3)cc1 (some centres not stated) | 4920 | 1160
19 | COc1ccc(C[C@@H]2CN3C(=NC[C@H]3C3CCCCC3)N2CC2CCC(C)CC2)cc1 (some centres not stated) | 362 | 
20 | COc1ccc(C[C@H]2CN3C(=NC[C@H]3C3CCCCC3)N2CC2CCC(C)CC2)cc1 (some centres not stated) | 804 | 2970
